Series [1] relates to CEM-SS cells. Briefly: Compound cytotoxicity in the HIV MTS assay (cells plus drug only). It is filed as cell-based, human. As to conditions: 50% inhibition of cell growth. The protocol:
In this MTS cytoprotection assay, each experiment included cell control wells (cells only), virus control wells (cells plus virus), drug toxicity wells (cells plus drug only), drug colorimetric control wells (drug only) as well as experimental wells (drug plus cells plus virus). […] HIV-1RF was added to each well in a volume of 50 μL, the amount of virus determined to give approximately 90% cell killing at 6 days post-infection. At assay termination, assay plates were stained with the soluble tetrazolium-based dye MTS (CellTiter 96 Reagent, Promega) to determine cell viability and quantify compound toxicity. MTS is metabolized by the mitochondria enzymes of metabolically active cells to yield a soluble formazan product, providing a quantitative analysis of cell viability and compound cytotoxicity. The assay was validated in parallel experiments using Zidovudine (3′-azido-3′-deoxythymidine or AZT) as a positive control.

Series [2] deals with human hepatoma cell line ET. Briefly: Cytotoxicity in the replicon cell line, colorimetric assay of cell numbers. The settings on record: ET cells, 72 h; for IC50: read-out: Cytotoxicity IC50, concentration inhibiting cell viability by 50%; for IC90: read-out: Cytotoxicity IC90, concentration inhibiting cell viability by 90%. In general terms: In antiviral work, replicon cells carry a viral genome segment that copies itself.

As a reminder, the IC50 is the concentration that inhibits the measured activity by half. As a reminder, the IC90 is the concentration at which the effect reaches the 90% level. Consider “3-(isopropoxy)-4-(gamma-hydroxymethylleucine)cyclosporin [V]”, for which the half-maximal inhibitory concentration (IC50) in series [1] was greater than 20000 nM; in series [2], greater than 2000 nM. Moreover, in series [2], the IC90 was greater than 2000 nM.

For the substance “3-(ethoxy)-4-(gamma-hydroxymethylleucine)cyclosporin [W]”, the IC50 is greater than 20000 nM in series [1] and greater than 2000 nM in series [2]. In series [2], the IC90 was greater than 2000 nM.

The values are drawn from patent US7718767B2, “3-ether and 3-thioether substituted cyclosporin derivatives for the treatment and prevention of hepatitis C infection” (Scynexis, Inc., priority 2006, dated 2010).
